Assay: Solubility in water
Conditions: for dosing solutions

Question: With `C[C@H](CNC(=O)[C@H]1N=C(c2cccc(O)c2O)O[C@@H]1C)C(=O)N[C@@H]1CCCN(O)C1=O` [L-654,040, 2-(2,3-dihydroxyphenyl)-4,5-dihydro-N-[3-[(1-hydroxy-2-oxo-3(R)-piperidinyl)-amino]-2(R)-methyl-3-oxopropyl]-5R-methyl-4S-oxazolecarboxamide] as the compound, how does the solubility in water read?
Answer: prior heating of L-654,040 in a boiling water bath was necessary for solubility
